Data taken from the supplement of paper PMC13380429.

Key:
Vero E6 [1] = assay: drug sensitivity score (DSS) for viability; higher = more toxic; extreme values may be limits of the assay; conditions: 72 h
HepG2 [2] = assay: as above; conditions: 72 h
Caco-2 [3] = assay: as above; conditions: 72 h
Calu-3 [4] = assay: as above; conditions: 72 h
U2OS [5] = assay: as above; conditions: 72 h
A549-ACE2 = assay: drug-induced phospholipidosis relative to tamoxifen; higher = more phospholipidosis
Vero E6 [6] = assay: relative viability EC50 (midpoint between 100% and the lowest measured viability); higher = less toxic; conditions: 72 h
HepG2 [7] = assay: as above; conditions: 72 h
Caco-2 [8] = assay: as above; conditions: 72 h
Calu-3 [9] = assay: as above; conditions: 72 h
U2OS [10] = assay: as above; conditions: 72 h
Vero E6 [11] = assay: cell viability relative to DMSO; higher = less toxic; conditions: 72 h
HepG2 [12] = assay: as above; conditions: 72 h
Caco-2 [13] = assay: as above; conditions: 72 h
Calu-3 [14] = assay: as above; conditions: 72 h
U2OS [15] = assay: as above; conditions: 72 h

Which results are given for N=C(N)NCCC[C@H](N)C(=O)NCC(=O)N[C@@H](CC(=O)O)C(=O)N[C@@H](CO)C(=O)O [DU-728]?
drug sensitivity score (Vero E6 [1]): 0; drug sensitivity score (HepG2 [2]): 0; drug sensitivity score (Caco-2 [3]): 0; drug sensitivity score (Calu-3 [4]): 0; drug sensitivity score (U2OS [5]): 0; drug-induced phospholipidosis (A549-ACE2; 0.3 µM, 24 h): -2.92%; drug-induced phospholipidosis (A549-ACE2; 0.3 µM, 48 h): 1.6%; drug-induced phospholipidosis (A549-ACE2; 0.3 µM, 72 h): 4.67%; drug-induced phospholipidosis (A549-ACE2; 0.833333 µM, 24 h): -4.44%; drug-induced phospholipidosis (A549-ACE2; 0.833333 µM, 48 h): -0.97%; drug-induced phospholipidosis (A549-ACE2; 0.833333 µM, 72 h): -3.31%; drug-induced phospholipidosis (A549-ACE2; 3.33333 µM, 24 h): -4.24%; drug-induced phospholipidosis (A549-ACE2; 3.33333 µM, 48 h): -0.23%; drug-induced phospholipidosis (A549-ACE2; 3.33333 µM, 72 h): 1.34%; drug-induced phospholipidosis (A549-ACE2; 6.66667 µM, 24 h): -3.18%; drug-induced phospholipidosis (A549-ACE2; 6.66667 µM, 48 h): -0.87%; drug-induced phospholipidosis (A549-ACE2; 6.66667 µM, 72 h): -4.1%; drug-induced phospholipidosis (A549-ACE2; 10 µM, 24 h): -0.55%; drug-induced phospholipidosis (A549-ACE2; 10 µM, 48 h): 0.85%; drug-induced phospholipidosis (A549-ACE2; 10 µM, 72 h): -3.08%; drug-induced phospholipidosis (A549-ACE2; 30 µM, 24 h): 6.43%; drug-induced phospholipidosis (A549-ACE2; 30 µM, 48 h): 7.09%; drug-induced phospholipidosis (A549-ACE2; 30 µM, 72 h): 2.99%; relative viability EC50 (Vero E6 [6]): > 10 µM; relative viability EC50 (HepG2 [7]): > 10 µM; relative viability EC50 (Caco-2 [8]): > 10 µM; relative viability EC50 (Calu-3 [9]): > 10 µM; relative viability EC50 (U2OS [10]): > 10 µM; cell viability (Vero E6 [11]; 1 nM): 105%; cell viability (Vero E6 [11]; 10 nM): 115%; cell viability (Vero E6 [11]; 100 nM): 103%; cell viability (Vero E6 [11]; 1000 nM): 99.6%; cell viability (Vero E6 [11]; 10000 nM): 88.6%; cell viability (HepG2 [12]; 1 nM): 93.4%; cell viability (HepG2 [12]; 10 nM): 97.2%; cell viability (HepG2 [12]; 100 nM): 100%; cell viability (HepG2 [12]; 1000 nM): 98.9%; cell viability (HepG2 [12]; 10000 nM): 98.8%; cell viability (Caco-2 [13]; 1 nM): 113%; cell viability (Caco-2 [13]; 10 nM): 104%; cell viability (Caco-2 [13]; 100 nM): 106%; cell viability (Caco-2 [13]; 1000 nM): 96%; cell viability (Caco-2 [13]; 10000 nM): 111%; cell viability (Calu-3 [14]; 1 nM): 103%; cell viability (Calu-3 [14]; 10 nM): 105%; cell viability (Calu-3 [14]; 100 nM): 98.8%; cell viability (Calu-3 [14]; 1000 nM): 102%; cell viability (Calu-3 [14]; 10000 nM): 107%; cell viability (U2OS [15]; 1 nM): 99.3%; cell viability (U2OS [15]; 10 nM): 93.8%; cell viability (U2OS [15]; 100 nM): 93.5%; cell viability (U2OS [15]; 1000 nM): 94.5%; cell viability (U2OS [15]; 10000 nM): 96.3%
